# Measured affinities in a library of Ab-14 light chain variants

Reference: Li et al. 2023, doi:10.1038/s41467-023-39022-2. File: FLAb, binding data.

Binding partner: SARS-CoV-2 spike HR2 peptide, sequence PDVDLGDISGINAS.

Parent: Ab-14, a human scFv built as VH, a 15-residue (Gly4Ser)3 linker, VL. Only the CDRs of the light chain vary.
VH: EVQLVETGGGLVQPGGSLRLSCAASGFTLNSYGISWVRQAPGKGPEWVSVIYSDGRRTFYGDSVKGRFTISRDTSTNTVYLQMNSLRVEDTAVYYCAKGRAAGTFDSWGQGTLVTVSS
VL: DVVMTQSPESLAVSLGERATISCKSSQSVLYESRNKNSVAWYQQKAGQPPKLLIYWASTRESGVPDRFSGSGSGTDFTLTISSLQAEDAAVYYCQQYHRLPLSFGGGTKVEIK

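Designed CDR sequences, proposed from the first random library and measured here. Group labels follow the data file (Ctrl: baseline library sampled from a position-specific scoring matrix, with some repeated check sequences; En: ensemble of fine-tuned language models; GP: Gaussian process model; HC: hill climbing; Gen: genetic algorithm; Gibbs: Gibbs sampling; a sequence that several methods proposed may carry one label only). AlphaSeq pools MATa yeast showing the antibodies with MATalpha yeast showing the peptide. After mating in shaken culture at 30 °C for 16 h, diploids were selected and their barcode pairs sequenced. A regression on co-assayed BCL2-family reference pairs converts the normalised counts of each replicate to an apparent Kd. Each pool was mated in six replicate cultures.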

Each variant is given by its three light chain CDRs, as the data file delimits them; those of the parent are KSSQSVLYESRNKNSVA, WASTRES, QQYHRLPLS.
Scale: log10 of Kd in nM, estimated from mating counts; low values are strong binders.
The mean shown is taken over the replicates in which the pair was detected.
"n.d." means that the variant was in the library but no mating with the target was seen in that replicate; the authors take this as a sign of poor binding, and no number exists.
Entries are sorted by rising average, undetected variants last.
Of ten entries with the parent sequence, four were seen in most replicates (averages 0.34 to 2.37), three in one and three in none, so single entries are noisy.

log10 Kd, replicates	mean log10 Kd (nM)	empty controls	CDR-L1	CDR-L2	CDR-L3	group
-0.67 / -0.75 / -0.91 / -0.88 / -0.88 / -0.59	-0.78	0 of 18	KLSQSMLYESRNPNSVA	NASQRES	QQYHRLPLS	GP_Gen
-0.02 / -0.30 / -0.28 / -0.39 / -0.55 / -0.18	-0.29	2 of 18 (2.65)	KLPQSVLYESRNKNNVA	EASTRES	QQYHRLPLS	GP_Gen
-0.15 / -0.42 / -0.16 / -0.29 / -0.23 / -0.32	-0.26	3 of 18 (2.15)	KFSQSVLYESRNKNSVA	DASTRSS	QQYHRLPLS	GP_HC
-0.13 / -0.24 / -0.26 / -0.44 / -0.36 / -0.11	-0.26	2 of 18 (2.75)	KLQQSGLYESRNKNSVA	SASTRES	QQYHRLPLS	GP_Gen
0.13 / -0.28 / -0.38 / -0.30 / -0.04 / -0.22	-0.18	0 of 18	LLSQSSGYEQRNKNSVA	DASTRLS	QQYHRLPLS	GP_Gibbs
0.14 / -0.17 / -0.18 / -0.33 / -0.30 / 0.01	-0.14	2 of 18 (2.73)	KLSQSWLMESRNSNSVA	DASTRLS	QQYHRLPLS	GP_Gibbs
-0.01 / -0.03 / -0.17 / -0.24 / -0.15 / 0.03	-0.10	2 of 18 (4.22)	KYSQSVLYESRNKNAVA	GASTRES	QQYHRLPLS	GP_HC
0.04 / -0.08 / -0.23 / 0.09 / -0.45 / 0.12	-0.08	1 of 18 (1.55)	KMNERMRMGENQQHSIA	NAATIVK	QQYHNLPLG	En_Gibbs
0.07 / -0.07 / -0.20 / -0.11 / -0.08 / -0.02	-0.07	0 of 18	KLSQSELYESRNKNSVA	NASTREQ	QQYHRLPLS	GP_Gen
-0.02 / 0.10 / -0.33 / 0.14 / -0.01 / 0.09	0.00	2 of 18 (3.89)	KMSQSELYESRNKNSVA	EASTRES	QQYHRLPLS	GP_Gen
0.13 / 0.11 / 0.00 / -0.18 / -0.09 / 0.03	0.00	4 of 18 (2.75)	MISDLTMYGSRNKNSVA	DLSKRGS	QQYHRLPLS	En_HC
0.16 / 0.19 / 0.25 / 0.01 / -0.01 / 0.06	0.11	2 of 18 (2.23)	KSPQSHDYGSRNKNSVA	NASERES	QQYHRLPLS	GP_Gibbs
0.20 / 0.20 / -0.01 / -0.11 / 0.18 / 0.56	0.17	1 of 18 (1.70)	RMEWHMSGATEAKNSMA	GVEHRAN	QQYDRLPLS	En_Gibbs
0.45 / 0.36 / 0.41 / 0.40 / 0.41 / 0.44	0.41	0 of 18	KLSQSVLYESRNPNSVA	NASTRES	QDYHRLPLS	GP_Gen
0.61 / 0.56 / 0.60 / 0.43 / 0.52 / 0.39	0.52	1 of 18 (1.74)	KIGQTLNQLMHQKNNVA	DLVTREA	QQYHRLPLS	En_Gen
0.78 / 0.58 / 0.62 / 0.29 / 0.47 / 0.64	0.56	0 of 18	KLMQSVLYESRDKNSVA	HASTRED	QQYHRLPLS	GP_HC
0.79 / 0.57 / 0.93 / 1.21 / 0.60 / 0.65	0.79	0 of 18	TLGASTLEESRNKNSVA	EMSLREN	QSYNRLPLS	En_HC
0.78 / 0.74 / 0.94 / 0.68 / 0.81 / 0.93	0.81	0 of 18	QLEFERGDEWKQGAAIA	GNTESLH	QQYAMLPLS	En_Gibbs
1.05 / 1.12 / 1.23 / 0.59 / 0.71 / 0.97	0.95	2 of 18 (2.00)	SLDHDVGLHTHDQKSIA	GETRVDR	QQYAHLPLS	En_Gibbs
1.04 / 0.78 / 1.02 / 0.90 / 1.14 / 0.87	0.96	1 of 18 (2.69)	TLVGNIQGGGWAKKNVA	DESTRVN	QQYYRLPLS	En_Gibbs
0.82 / 1.07 / 0.69 / 1.21 / 1.25 / 0.92	0.99	0 of 18	KLSSVTGHLSVEKNNVA	EMETREN	QQYNRLPLS	En_Gen
0.97 / 1.08 / 0.89 / 1.35 / 0.82 / 1.00	1.02	2 of 18 (4.39)	KSSQSVLPESRNKNSVA	QASTRES	QQYHKLPLS	Ctrl
1.43 / 1.33 / 0.56 / 1.84 / 1.41 / 1.29	1.31	0 of 18	HFSQHTMEEMSSNKAVA	EVTTTMT	QQYARLPFI	En_Gibbs
1.11 / 1.51 / 0.97 / 1.16 / 1.30 / 1.96	1.33	3 of 18 (3.05)	HISMMVGTKGYNKNSVA	NEETRED	QQYHRLPLS	En_HC
1.10 / 1.54 / 0.86 / 1.98 / 1.30 / 1.85	1.44	3 of 18 (2.65)	RLTEHESEKKAADASVA	DANTRND	QQYHRLPLF	En_Gibbs
1.38 / 1.59 / 1.58 / 1.62 / 1.68 / 0.93	1.47	1 of 18 (1.60)	KLTMSYRYESENKNSIA	ELVTRMS	QQYHRLPLS	En_HC
1.38 / 1.35 / 1.99 / 1.31 / 1.35 / 1.74	1.52	1 of 18 (1.55)	NMQLQVRNGNNNKYNIA	AEMLREY	QQYNRLPLS	En_Gibbs
2.38 / 1.34 / 1.37 / 1.98 / 1.83 / 1.97	1.81	0 of 18	NLSIQNQHQNMSANAVA	QTEIRCE	QQYAQLPLA	En_Gibbs
2.23 / 1.97 / 2.02 / 1.69 / 1.73 / 2.09	1.96	1 of 18 (3.31)	KSSQRVLHEGRNKNSVA	QASSRES	QQYHRLPLS	Ctrl
n.d. / n.d. / n.d. / n.d. / 2.03 / n.d.	2.03	0 of 18	KSSQSVLYESRNKNSVA	YASTRES	QQYARLPTS	Ctrl
n.d. / n.d. / n.d. / n.d. / n.d. / n.d.	n.d.	0 of 18	IVSQLMLWGMHAKNSIA	EAEMRIN	QQYHRLPLF	En_Gen
n.d. / n.d. / n.d. / n.d. / n.d. / n.d.	n.d.	0 of 18	KSSYMVLYESRNKNSVA	EASTRES	QQDHRLPLS	Ctrl
n.d. / n.d. / n.d. / n.d. / n.d. / n.d.	n.d.	0 of 18	KSSQSVLYESRNKNSVA	AASTRES	QQYRRLLLS	Ctrl
n.d. / n.d. / n.d. / n.d. / n.d. / n.d.	n.d.	0 of 18	KSSQWVLYASHNKNSVA	WASTRES	QQYHRLPLS	Ctrl

The 4 strongest on average among those seen in every replicate, once more:

CDR-L1,CDR-L2,CDR-L3,group,"log10 Kd, replicates",mean log10 Kd (nM),empty controls
KLSQSMLYESRNPNSVA,NASQRES,QQYHRLPLS,GP_Gen,-0.67 / -0.75 / -0.91 / -0.88 / -0.88 / -0.59,-0.78,0 of 18
KLPQSVLYESRNKNNVA,EASTRES,QQYHRLPLS,GP_Gen,-0.02 / -0.30 / -0.28 / -0.39 / -0.55 / -0.18,-0.29,2 of 18 (2.65)
KFSQSVLYESRNKNSVA,DASTRSS,QQYHRLPLS,GP_HC,-0.15 / -0.42 / -0.16 / -0.29 / -0.23 / -0.32,-0.26,3 of 18 (2.15)
KLQQSGLYESRNKNSVA,SASTRES,QQYHRLPLS,GP_Gen,-0.13 / -0.24 / -0.26 / -0.44 / -0.36 / -0.11,-0.26,2 of 18 (2.75)

A sequence measured in both rounds can read differently, since the two assays cover different ranges.
The authors averaged sequences with at least three values out of six and counted those with two or fewer as poor binders.
Three control strains display no target. For all light chain designs, 4% of the pairings with them gave a signal, with a median of 2.64 and one signal in twenty below 1.59, so weak values seen in few replicates may be background. The control count says in how many pairings with the empty strains this scFv gave a signal, with their mean in brackets.